Data reported in article PMC12947556.

What was measured:
[1] = target: ([H3K4me3K9acK14acK18ac]2) semisynthetic mononucleosome; assay: Luminex bead-based binding assay; GST-BPTF PHD-BD against PTM-defined semisynthetic nucleosomes; relative EC50 (EC50^Rel); methods in the SI
[2] = target: ([H3K4me3K9acK14acK18ac]2) semisynthetic mononucleosome; assay: native MS; Nuc-MS MS1: GST-BPTF PHD-BD constructs mixed with PTM-defined semisynthetic mononucleosomes, intact complexes; three independent experiments
[3] = target: GST-BPTF PHD-BD (UniProt Q12830); assay: as above

GST-BPTF PHD-BD (from UniProt Q12830 1-3046) (domain or fragment)
EC50 [1]: 0.0234 µM | stoichiometry N [2]: 2 | stoichiometry N [3]: 2
